Values of other authors, collected in US20120095019A1 (priority 2010, published 2012).

Details: not told; cited from earlier work

CC(=O)N1CCN(c2ccc(OCC3COC(Cn4ccnc4)(c4ccc(Cl)cc4Cl)O3)cc2)CC1 (stereo not shown) [ketoconazole]
permeability: high permeability
